Data taken from patent US12612442B2, “G12-specific designer receptor exclusively activated by designer drugs” (CELL NETWORKS GMBH, priority 2019, dated 2026).
Entries after “also recorded” stand apart in the source; their conditions may differ.

Target: T1, AGTR1 (Homo sapiens, UniProt P30556)
T1 construct: An open reading frame of each full-length GPCR was cloned into pCAGGS expression plasmid; expressed in transfected cells; host or cells: ΔGq/ΔG12 HEK293
Experiment: Chimeric G-protein-based TGFα shedding assay, ligand bias
Assay type: cell-based
Conditions: ΔGq/ΔG12 cells
Method: The TGFα shedding assay was performed as described previously (Inoue et al., 2012) with minor modifications. Plasmid transfection was performed in a 6-well plate with a mixture of 500 ng AP-TGFα-encoding plasmid, 200 ng GPCR-encoding plasmid with or without 100 ng Gα-encoding plasmid (per well, hereafter). After 1-day culture, the transfected cells were harvested by trypsinization, pelleted by centrifugation at 190 g for 5 min and washed once with Hank's Balanced Salt Solution (HBSS) containing 5 mM HEPES (pH 7.4). After centrifugation, the cells were resuspended in 6 ml of the HEPES-containing HBSS. […] The cell suspension was seeded in a 96-well culture plate (cell plate) at a volume of 90 μl (per well hereafter) and incubated for 30 min in a 5% CO2 incubator at 37° C. […] Absorbance at 405 nm (Ab405) of the plates was measured, using a microplate reader (SpectraMax 340 PC384, Molecular Devices), before and after 1-h or 2-h incubation at room temperature. Ligand-induced AP-TGFα release was calculated as described previously. […]
The inventors used a factor known as the relative intrinsic activity (RAi) (Ehlert et al., 1999) to calculate scores for G-protein coupling. […] The resulting dimensionless, relative Emax/EC50 (defined as RAi) parameter was then log (base 10) transformed to give Log RAi values used to quantify coupling. […]

[Sar^1, Ile^4,6]-Angiotensin II [SII]
activation of Gαs (C-terminal Gαs chimera): minimum
ligand bias among G-proteins (LogRAi plots) (compared with reference ligand Ang II): biased toward G12 over Gq; also recorded: more biased towards G12 than Gq
